Columns and labels:
PIK3CA (human) [1] = biological target: PIK3CA (human) (UniProt P42336); experiment: Cell-Based Assay; conditions: t47d
PIK3CA (human) [2] = biological target: PIK3CA (human) (UniProt P42336); experiment: Enzyme Assay
PIK3CD (Human) = PIK3CD (Human) (UniProt O00329); experiment: Enzyme Assay

Sequences of proteins named here, by UniProt entry; tags and fusion partners are left off. A change or cut given only in a name is not applied to a line headed by its entry.
UniProt P42336, whole entry, looked up: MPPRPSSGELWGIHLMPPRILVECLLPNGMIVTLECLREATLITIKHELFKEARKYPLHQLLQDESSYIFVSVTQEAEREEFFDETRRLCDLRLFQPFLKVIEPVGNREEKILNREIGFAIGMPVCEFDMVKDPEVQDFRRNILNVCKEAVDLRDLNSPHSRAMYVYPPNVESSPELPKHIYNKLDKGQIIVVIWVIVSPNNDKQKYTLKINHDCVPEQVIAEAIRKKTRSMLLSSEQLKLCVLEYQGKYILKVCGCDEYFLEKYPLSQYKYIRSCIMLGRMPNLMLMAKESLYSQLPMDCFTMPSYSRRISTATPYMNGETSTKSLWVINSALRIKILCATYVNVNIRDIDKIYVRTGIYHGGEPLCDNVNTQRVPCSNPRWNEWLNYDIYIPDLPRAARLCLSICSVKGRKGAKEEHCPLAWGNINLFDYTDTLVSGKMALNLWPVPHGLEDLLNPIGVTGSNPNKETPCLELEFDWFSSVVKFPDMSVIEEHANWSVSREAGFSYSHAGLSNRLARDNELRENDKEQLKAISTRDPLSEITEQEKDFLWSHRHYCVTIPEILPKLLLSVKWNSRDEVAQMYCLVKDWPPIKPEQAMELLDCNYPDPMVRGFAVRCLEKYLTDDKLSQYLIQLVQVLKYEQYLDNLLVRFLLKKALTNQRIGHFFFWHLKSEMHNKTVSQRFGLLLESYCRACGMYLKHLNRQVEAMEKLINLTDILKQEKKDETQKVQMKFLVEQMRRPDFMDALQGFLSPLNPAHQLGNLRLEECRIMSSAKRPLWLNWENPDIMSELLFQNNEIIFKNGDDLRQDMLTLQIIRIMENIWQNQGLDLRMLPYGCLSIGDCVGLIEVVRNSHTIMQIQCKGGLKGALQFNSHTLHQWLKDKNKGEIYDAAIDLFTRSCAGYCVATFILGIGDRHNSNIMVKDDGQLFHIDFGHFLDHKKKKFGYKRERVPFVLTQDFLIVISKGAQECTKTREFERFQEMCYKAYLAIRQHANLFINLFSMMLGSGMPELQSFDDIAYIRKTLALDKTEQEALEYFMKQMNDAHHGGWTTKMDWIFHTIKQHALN
UniProt O00329: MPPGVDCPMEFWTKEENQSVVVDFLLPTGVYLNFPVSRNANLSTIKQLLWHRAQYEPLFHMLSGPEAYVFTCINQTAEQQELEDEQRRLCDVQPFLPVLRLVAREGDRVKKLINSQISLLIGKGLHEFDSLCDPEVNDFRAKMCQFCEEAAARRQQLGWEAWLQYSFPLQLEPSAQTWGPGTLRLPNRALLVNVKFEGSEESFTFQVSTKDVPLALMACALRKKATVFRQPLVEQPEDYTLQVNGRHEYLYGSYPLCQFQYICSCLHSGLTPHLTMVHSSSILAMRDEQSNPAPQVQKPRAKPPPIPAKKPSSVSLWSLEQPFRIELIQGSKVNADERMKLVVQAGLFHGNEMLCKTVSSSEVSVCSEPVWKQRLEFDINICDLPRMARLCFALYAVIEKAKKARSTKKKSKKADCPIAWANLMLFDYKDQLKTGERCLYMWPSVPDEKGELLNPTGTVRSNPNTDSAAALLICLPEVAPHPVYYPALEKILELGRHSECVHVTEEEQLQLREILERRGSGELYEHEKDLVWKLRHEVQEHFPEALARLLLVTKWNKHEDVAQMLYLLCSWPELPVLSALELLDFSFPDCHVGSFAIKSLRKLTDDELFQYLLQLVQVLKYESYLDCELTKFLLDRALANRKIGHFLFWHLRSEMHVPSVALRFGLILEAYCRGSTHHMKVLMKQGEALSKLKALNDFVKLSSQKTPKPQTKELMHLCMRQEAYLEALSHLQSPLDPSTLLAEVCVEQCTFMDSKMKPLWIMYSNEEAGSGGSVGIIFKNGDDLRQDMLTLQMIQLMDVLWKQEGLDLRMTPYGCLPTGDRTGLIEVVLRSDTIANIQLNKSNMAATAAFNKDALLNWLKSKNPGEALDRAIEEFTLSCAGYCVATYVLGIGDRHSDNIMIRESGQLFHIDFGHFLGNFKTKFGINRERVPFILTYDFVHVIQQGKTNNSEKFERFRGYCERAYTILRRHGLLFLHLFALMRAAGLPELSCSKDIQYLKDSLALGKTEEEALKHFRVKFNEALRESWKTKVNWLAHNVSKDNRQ

Nc1nc2cc(-c3ccc4ncc(C(=O)N[C@H]5CC[C@H](O)CC5)n4c3)ccc2o1
IC50 (PIK3CA (human) [1]): 100 to 1000 nM | IC50 (PIK3CA (human) [2]): < 100 nM | IC50 (PIK3CD (Human)): < 100 nM

Source: the Kinase Knowledgebase extract (Sharma et al. 2016)
